This passage reports activation (H2AX phosphorylation) results from PubChem BioAssay (Tox21).

Where “and” joins values, the source holds several entries; their conditions need not be identical. Equal entries are not always repeated. This is a selection; strong and weak results do not stand in their true shares. Results filed as inconclusive are left out. Calls of active or inactive are those of the source. Calls come from the whole dose curve; as a rule, active = well fitted activation curve with a large enough effect in the signal ratio in the repeat runs (not every such curve was filed as active); inconclusive = weak or mixed curves; inactive = flat fitted curve, though single readings scatter; the % refers to the signal ratio.
% is set by controls: 0 for no effect and ±100 for the full control effect.

A short description of one assay: qHTS assay to identify small molecule agonists of H2AX (AID 1224845). Conditions: CHO-K1 phospho-H2AX Ser139 HTRF, 3 h; at 70.9 µM (top of the series). An excerpt: National Center for Advancing Translational Sciences [NCATS]
NIH Chemical Genomics Center [NCGC]
U.S. Environmental Protection Agency [EPA]
National Institutes of Environmental Health Sciences [NIEHS]
National Toxicology Program [NTP]
U.S. Food and Drug Administration [FDA]
HTRF phospho-H2AX (Ser139) assay (Cisbio Bioassays, US) enables the quantitative detection of the histone variant H2AX when phosphorylated on serine 139. When double-stranded DNA breaks, either by ionizing radiation or endogenous physiological processes, H2AX becomes phosphorylated at Ser139. This phospho-Ser139 serves as a sensitive biomarker for the detection of such breaks, localizing the site of DNA repair. So, HTRF phospho-H2AX Ser139 is a pertinent assay to study genome stability, the cell cycle, DNA repair, and it serves as a biomarker for cancer, and to understand aging. Wild type CHO-K1 cells were used to identify the inducers of Phospho-H2AX Ser 139 from the Tox21 10K compound collections.
Tox21 Assay Protocol Summary:
The CHO-K1 cells suspended in culture medium containing 10% FBS were dispensed at 1000 cells/ 3 ul/well in 1536-well white wall/solid bottom plates (Greiner Bio-One North America, NC) using a Multidrop Combi (Thermo Fisher Scientific Inc., Waltham, MA). After the assay plates were incubated at 37C overnight, 23 nl of compounds at 15 concentrations (from 5-48 columns) or positive control (from 1 to 4 columns) were transferred to the assay plates using a Pintool station (Wako, San Diego, CA) into each well resulting in a final DMSO concentration of 0.76%. After 3hr incubation at 37C, 1 uL/well Supplemented Lysis buffer (diluted 100 fold blocking reagent in lysis buffer) (HTRF Phospho-H2A.X (S139) Assay kit from Cisbio US Inc., Bedford, MA) was added using a Flying Reagent Dispenser (FRD) (Aurora Discovery, CA). After 10sec spin at 1000 rpm in a plate centrifuge, the assay plates were incubated at room temperature for 30 min. Then followed by the addition of 1 uL/well detection buffer (containing a mixture of two antibodies, one labeled with cryptate, Anti pH2AX (S139)-K and another labeled with d2, Anti H2AX-d2) using FRD. After incubation at room temperature for 24 hr, the time resolved fluorescence at excitation 320 nm and emissions at 665 nm and 620 nm was measured using an Envision plate reader (PerkinElmer, Waltham, MA).
For `Cc1cccc([N+](=O)[O-])c1[N+](=O)[O-]`, the activation (H2AX phosphorylation) was inactive: -0.664%.

For `OCCSCCO`, the activation (H2AX phosphorylation) is inactive: -0.34%.

On to `CCOP(=O)(CC)Oc1ccc([N+](=O)[O-])cc1` (stereo not given), for which the activation (H2AX phosphorylation) was inactive: 0.0878%.

The assay is the same for the next values; noted with them: CHO-K1 phospho-H2AX Ser139 HTRF, 3 h; at 154 µM (top of the series).
In the case of `O=[N+]([O-])c1cccc([N+](=O)[O-])c1`, the activation (H2AX phosphorylation) was inactive: 2.84%.

Turning to `OCCSCCO`, the activation (H2AX phosphorylation) is inactive: -1.6%. Still for that read-out and setting: the same measure for `O=[N+]([O-])OCC(CO[N+](=O)[O-])(CO[N+](=O)[O-])CO[N+](=O)[O-]`: inactive: -1.15%; for `O=[N+]([O-])[O-].[NH4+]`: inactive: -0.339% and inactive: -0.181%; for `CC(C)OP(C)(=O)OC(C)C`: inactive: -1.19% and inactive: -0.0023%. For the compound `Cc1ccc([N+](=O)[O-])cc1[N+](=O)[O-]`, the activation (H2AX phosphorylation) is inactive: 0.454%.

Consider `N#CBr`, for which the activation (H2AX phosphorylation) was inactive: -0.562%. Same read-out and setting: in the case of `CCOP(=O)(CC)OCC` it was inactive: -2.4%; in that of `CN(C)CCCl`, inactive: 4.58%; in that of `Cc1ccc([N+](=O)[O-])c([N+](=O)[O-])c1`, inactive: 2.28%.

For the compound `[NH4+].[O-][Cl+3]([O-])([O-])[O-]`, the activation (H2AX phosphorylation) is inactive: -0.292% and inactive: -0.17%. Same read-out and setting: the same measure for `Cc1c([N+](=O)[O-])cccc1[N+](=O)[O-]`: inactive: -2.33% and inactive: -2.44%. With `CC(C)N(CCO)C(C)C`, the activation (H2AX phosphorylation) is inactive: -1.87%. With `COP(C)(=O)OC`, the activation (H2AX phosphorylation) was inactive: -1.28% and inactive: 0.66%. Consider `CP(=O)(O)OCCC[Si](O)(O)O`, for which the activation (H2AX phosphorylation) was inactive: 0.0567%. Turning to `COc1ccc([N+](=O)[O-])cc1[N+](=O)[O-]`, the activation (H2AX phosphorylation) is inactive: -3.94%. On the same count and under the same terms, in the case of `N=C(N)N[N+](=O)[O-]` it was inactive: 6.2%.
